Where two headings read alike, the source gives them in different places. Marks after values point to notes of the source that are not given here.
Columns and labels:
[1] = cited from earlier work
[2] = Brain penetration (brain homogenate AUCt, Kp,brain, Kp,uu,brain); settings: for AUCt brain homogenate: t = 24 hours, mean (95% CI)
Description: After a 1-week acclimation period, the mice were randomly assigned to 2 experimental groups of 36 animals each: (1) an LPS group was given a single 4 mg/kg intraperitoneal (IP) injection of lipopolysaccharide (LPS), serotype O55:B05 (Sigma) and (2) a control group received a vehicle (sterile phosphate-buffered saline). […] The volume load for mice weighing 25 g was 125 µL. […] The doses of DMSO and MC were 276 and 25 mg/kg. […] Sampling was performed at 2 intervals in each of the 18 mice injected with LPS and 18 controls. The first blood volume of 150 µL was taken into an EDTA-microvette CB 300 (Sardstedt) from a drop of blood after a small incision at the end of the tail. At the termination interval, the second blood sample was collected by cardiac puncture in terminal anesthesia, and then the animal was put to death by decapitation. […] The injected volume was 1 mL/kg, that is, 25 µL for a 25 g mouse. […] The injected volume was 2.5 mL/kg, that is, […]. After IV administrations, blood was sampled at 3, 5, 10, 20, and 40 minutes, and 1, 1.5, 2, 3, 4, and 6 hours. Blood samples were taken at 3 intervals in each mouse. The first 2 samples of 75 µL each were taken from the retroorbital plexus under brief anesthesia and the third terminal sample was described for oral dosing. Plasma samples were obtained from whole blood by centrifugation at 2000 × g for 5 minutes at 4°C. Whole brain, liver, and intestine were excised and immediately frozen in liquid nitrogen. All samples were stored at −80°C until analysis.
Details of the analysis can be found in the Supplementary Materials.
The calculation of the point estimate and the 95% bootstrap t-confidence interval for AUCt was performed with the help of the R-package PK (https://cran.r-project.org/web/packages/PK/index.html). Total brain-to-plasma drug partition coefficient (Kp,brain) and unbound brain-to-unbound plasma partition coefficient (Kp,uu, brain) were calculated using Equations 3 and 4:
Kp,brain=AUCt,brain/AUCt,plasma
Kp, uu,brain=fu,brain × AUCt,brain/fu, plasma × AUCt,plasma

[3] = Rapid equilibrium dialysis, binding in brain homogenates; assay type: in vitro ADME, mice; settings: C57BL/6N, mouse, mean (range), pooled samples, read-out: unbound fraction in the brain homogenate
Description: Plasma samples collected from individual mice at each time point were pooled into composite samples due to insufficient sample volumes for performing RED. Similarly, brain homogenate samples from individual time points were pooled. RED was performed according to the manufacturer’s protocol (for details, see the Supplementary Materials). The free drug fraction in plasma was calculated by using Equation 1: […]
The free drug fraction in the brain homogenate was determined by using Equation 2, which accounts for the effect of tissue dilution on the unbound fraction:
fu,brain=1/D/(1/fu,diluted−1)+1/D
were D is the dilution factor in the brain homogenate and the fu,diluted associated free fraction determined as the ratio of concentrations in the buffer versus the diluted brain tissue.
(§1) Rapid Equilibrium Dialysis. Briefly, 50 µL of drug-spiked plasma or 100 µL of 10-fold diluted brain homogenates were added to the sample chambers of the RED device, while 300 µL or 350 µL of phosphate-buffered saline (PBS, pH at 7.4) were added to the corresponding buffer chambers. Each pooled sample was analysed in triplicate. Control samples consisting of plasma and brain homogenates from the study, spiked with clozapine and trazodone at a target concentration of 100 ng/mL, were analysed in each measurement series. […]

[4] = in vivo; settings: C57BL/6N, mouse
[5] = cited from earlier work; remark: listed apart in the source
[6] = Rapid equilibrium dialysis, protein binding in plasma; assay type: in vitro ADME; settings: C57BL/6N, mouse, plasma (pooled samples from the study mice), mean (range)
Description: Plasma samples collected from individual mice at each time point were pooled into composite samples due to insufficient sample volumes for performing RED. Similarly, brain homogenate samples from individual time points were pooled. RED was performed according to the manufacturer’s protocol (for details, see the Supplementary Materials). The free drug fraction in plasma was calculated by using Equation 1:
as §1, with “series. Each plate was sealed with aluminium foil and incubated at 37 ± 1 °C with an agitation at 350 rpm on an orbital shaker (Randox PHMP, Grant Instruments Ltd, Shepreth, Cambridgeshire, England) for 4 hours. After incubation, a matrix-matching procedure was performed: 10 µL of each post-dialysis sample was mixed with an equal volume of PBS, while 10 µL of each buffer sample was mixed with the corresponding blank plasma or brain homogenate.” for “series.”

[7] = C57BL/6N, mouse, in vivo, po
[8] = cited from earlier work; for Kp,uu / Kp for total olanzapine: rat brain
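For increase of absolute bioavailability Fp.o., LPS vs controls in this document: pharmacokinetic model fitted to concentration-time data, with between-animal variability described exponentially, residual error proportional, and effect of LPS injection assessed on clearance and distribution volumes.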

Cc1cc2c(s1)Nc1ccccc1N=C2N1CCN(C)CC1 [olanzapine]
CL/F ([1]; mice dosed with 10 mg/kg): 462 mL/min/kg
CL/F ([1]; mice, IP injection 2 mg/kg): 28.3 mL/min/kg
CL/F ([1]; mice, IP injection 25 mg/kg): 40 mL/min/kg
Kp,brain ([2]; Controls, 0.5 mg/kg IV OL): 5.5
Kp,uu,brain ([2]; Controls, 0.5 mg/kg IV OL): 3.6
Kp,brain ([2]; Controls, 4 mg/kg PO OL): 6.3
Kp,uu,brain ([2]; Controls, 4 mg/kg PO OL): 4.1
AUCt brain homogenate ([2]; Controls, 4 mg/kg PO OL): 758 (661–854) hour × ng/mg
Kp,brain ([2]; LPS mice, 0.5 mg/kg IV OL): 8.3
Kp,brain ([2]; LPS mice, 4 mg/kg PO OL): 8.5
Kp,uu,brain ([2]; LPS mice, 4 mg/kg PO OL): 6.2
AUCt brain homogenate ([2]; LPS mice, 4 mg/kg PO OL): 3950 (1850–6040)* hour × ng/mg
fraction unbound at 4 h ([3]; pH 7.4, LPS mice): 0.291
fraction unbound at 4 h ([3]; pH 7.4, control mice): 0.274
clearance [4]: 47.3 mL/min/kg
lower therapeutic range ([5]; favorable response but poor tolerance): 20 to 40 ng/mL
reduction in oral clearance during infections ([5]; population pharmacokinetic study): 25%
fraction unbound at 4 h ([6]; pH 7.4, LPS mice): 0.401
fraction unbound at 4 h ([6]; pH 7.4, control mice): 0.416
increase of absolute bioavailability Fp.o., LPS vs controls [7]: 3.1 fold
Kp,uu ([8]; brainstem): 0.86
Kp for total olanzapine ([8]; cerebellum): 1.9
Kp for total olanzapine ([8]; frontal cortex): 4.1
Kp,uu ([8]; frontal cortex): 1.8
increase of bioavailability of oral olanzapine ([8]; rats with depletion of gut microbiota by three antibiotics for 14 days): 1.8 fold

From article PMC12202309 (International Journal of Neuropsychopharmacology, 2025)
